Experimental data as given in US20240158386A1, “BENZOXAZOLONE INHIBITORS OF INFLAMMASOMES” (ICAHN SCHOOL OF MEDICINE AT MOUNT SINAI, priority 2021, published 2024).

Protein sequences, listed by entry. Tags and fused reporters are not part of them.
UniProt Q8R4B8, whole entry: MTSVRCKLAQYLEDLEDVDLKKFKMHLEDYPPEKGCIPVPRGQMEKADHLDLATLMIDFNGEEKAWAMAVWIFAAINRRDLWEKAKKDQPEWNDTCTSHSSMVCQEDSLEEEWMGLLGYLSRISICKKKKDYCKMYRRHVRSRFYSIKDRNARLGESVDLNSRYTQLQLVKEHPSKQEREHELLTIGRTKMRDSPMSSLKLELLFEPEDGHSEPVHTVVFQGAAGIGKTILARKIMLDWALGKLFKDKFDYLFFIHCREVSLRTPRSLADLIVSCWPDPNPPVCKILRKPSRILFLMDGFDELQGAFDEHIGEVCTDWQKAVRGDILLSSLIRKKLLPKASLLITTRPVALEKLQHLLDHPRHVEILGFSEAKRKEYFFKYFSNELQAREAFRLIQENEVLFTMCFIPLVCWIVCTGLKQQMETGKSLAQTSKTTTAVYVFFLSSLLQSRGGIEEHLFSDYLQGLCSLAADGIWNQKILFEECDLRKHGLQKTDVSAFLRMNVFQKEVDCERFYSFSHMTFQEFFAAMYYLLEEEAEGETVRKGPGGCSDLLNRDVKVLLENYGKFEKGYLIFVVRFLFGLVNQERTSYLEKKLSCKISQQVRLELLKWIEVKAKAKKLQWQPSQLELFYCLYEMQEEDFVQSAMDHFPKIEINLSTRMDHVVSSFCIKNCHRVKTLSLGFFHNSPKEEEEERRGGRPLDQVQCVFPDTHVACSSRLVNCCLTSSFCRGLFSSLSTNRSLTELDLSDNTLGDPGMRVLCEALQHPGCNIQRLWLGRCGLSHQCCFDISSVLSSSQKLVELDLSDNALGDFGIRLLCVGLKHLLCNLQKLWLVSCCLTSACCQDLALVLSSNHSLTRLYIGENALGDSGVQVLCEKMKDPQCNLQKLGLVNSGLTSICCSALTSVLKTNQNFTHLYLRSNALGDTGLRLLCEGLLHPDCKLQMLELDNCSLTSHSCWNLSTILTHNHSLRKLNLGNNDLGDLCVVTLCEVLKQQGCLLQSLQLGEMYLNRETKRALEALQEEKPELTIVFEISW
UniProt Q3UP24, whole entry: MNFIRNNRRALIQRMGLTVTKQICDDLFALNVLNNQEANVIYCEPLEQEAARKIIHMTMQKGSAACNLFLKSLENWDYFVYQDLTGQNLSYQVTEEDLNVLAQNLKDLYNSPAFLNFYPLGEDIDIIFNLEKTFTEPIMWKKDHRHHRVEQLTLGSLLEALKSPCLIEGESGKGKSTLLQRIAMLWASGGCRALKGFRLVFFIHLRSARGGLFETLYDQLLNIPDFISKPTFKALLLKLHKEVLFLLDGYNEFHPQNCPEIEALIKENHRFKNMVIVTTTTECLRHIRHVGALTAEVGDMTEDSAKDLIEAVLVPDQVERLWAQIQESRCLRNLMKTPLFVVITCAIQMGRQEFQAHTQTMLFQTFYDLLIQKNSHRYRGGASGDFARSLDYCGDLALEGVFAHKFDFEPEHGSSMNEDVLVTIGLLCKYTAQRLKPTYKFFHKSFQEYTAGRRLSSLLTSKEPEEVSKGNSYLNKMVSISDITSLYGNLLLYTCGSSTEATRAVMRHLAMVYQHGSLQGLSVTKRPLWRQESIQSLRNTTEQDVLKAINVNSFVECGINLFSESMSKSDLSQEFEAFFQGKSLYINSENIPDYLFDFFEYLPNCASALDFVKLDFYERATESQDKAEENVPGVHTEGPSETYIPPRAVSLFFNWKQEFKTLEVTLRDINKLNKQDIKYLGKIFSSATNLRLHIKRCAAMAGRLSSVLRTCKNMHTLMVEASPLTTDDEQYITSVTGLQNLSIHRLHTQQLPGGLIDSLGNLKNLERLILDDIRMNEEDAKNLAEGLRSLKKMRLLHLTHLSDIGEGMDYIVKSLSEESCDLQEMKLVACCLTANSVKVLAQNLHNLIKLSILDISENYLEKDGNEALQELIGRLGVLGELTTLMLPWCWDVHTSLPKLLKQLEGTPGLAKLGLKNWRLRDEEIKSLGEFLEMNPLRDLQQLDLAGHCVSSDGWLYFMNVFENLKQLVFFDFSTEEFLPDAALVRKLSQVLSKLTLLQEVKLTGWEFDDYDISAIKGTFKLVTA

What was measured:
[1] = system: ASC specks following NLRP3 activation; experiment: ASC speck formation / ASC oligomerization in m-Cerulean ASC labeled macrophages; settings: 10 μM pretreatment, LPS and ATP, compared with DMSO-treated cells
Experimental: m-Cerulean ASC labeled macrophages. NLRP3 Knock Out immortalized murine macrophages, stably expressing m-Cerulean-ASC, and NLRP3-Flag were a kind donation of Prof. Eicke Latz, (Institute of Innate Immunity, University of Bonn, Germany). Murine macrophages were maintained in high glucose DMEM medium supplemented with 10% FBS, 1% sodium pyruvate, and passaged every 2-3 days, before reaching confluence.
For ASC speck formation evaluation, murine macrophages were seeded in 96 well SCREENSTAR black microplates with clear base, 24 hours before stimulation. […] Cells were then fixed and counterstained in a single step, as previously described (Stutz, A. et al. ASC Speck Formation as a Readout for Inflammasome Activation. in The Inflammasome (eds. De Nardo, C. M. & Latz, E.) vol. 1040 91-101 (Humana Press, 2013).). […]
ASC oligomerization determination. […] ASC specks in cells pretreated with C75, C77, C78, and C97, before NLRP3 activation (as above indicated), were visualized with a widefield Leica DMi8 fluorescence microscope, using the 20× objective. […] For image analysis and speck quantification, ImageJ was used https://imagej.nih.gov/ij/index.html. Speck and nuclei quantification was performed as previously described in Stutz et al. When required (overlapping nuclei), the watershed separation algorithm was used to separate the particles. […]

[2] = system: primary microglial cultures; experiment: Pyroptosis measurement (LDH release) in primary microglial cultures; settings: primary microglia, LPS and ATP
Experimental: Pyroptosis measurement. The ability of C75, C77, C78, and C97 to inhibit pyroptosis was determined by measuring the LDH released by pyroptotic cells into the culture medium. 350 ng/ml LPS was added to primary microglial cultures pre-treated with different concentrations of the inhibitors. After 3 hours of treatment, pyroptosis was induced through the addition of 4.5 mM ATP, for 45 min. Cell supernatants were collected for LDH assessment, using the Cyto Tox 96® NonRadioactive Cytotoxicity Assay (Promega), following manufacturer the recommendations.

microglia cultures = experiment: Cell viability assay (CytoTox 96 cytotoxicity); settings: 100 μM
Experimental: (§1) NLRP3 inflammasome activation assay. Primary microglia cultures were incubated with the compounds that inhibited IL-1β production in THP1 macrophages. Cells pretreated with 100 μM of the compounds—or with the same DMSO volume, in the case of control samples—were primed with 400 ng/ml LPS for 3 hours, and activated with 4.5 mM ATP for 45 minutes or […] nigericin for 1 hour. Dose-response curves were conducted by incubating microglia cultures with different concentrations of the selected compounds, ranging from 0.001 to 100 μM, 1 hour before NLRP3 activation with LPS and ATP. Supernatants were collected for IL-1β and toxicity assessments.
Cell viability assays. The cytotoxic effect of the compounds identified by in-vitro screening was assayed with the Cyto Tox 96® NonRadioactive Cytotoxicity Assay (Promega), following the recommendations of the manufacturer.

NLRP3 inflammasome = NLRP3 inflammasome (Mus musculus, UniProt Q8R4B8); experiment: NLRP3 inflammasome activation assay: IL-1β release by primary microglia after LPS and ATP; settings: for IC50: IL-1β release, nonlinear fit of dose-response; for IC50 / inhibition of IL-1β release upon NLRP3 activation: microglia, LPS and ATP; for inhibition of IL-1β release upon NLRP3 activation: 100 μM compound
Experimental: Murine primary microglia. Mixed cortical cultures were prepared as previously described (Bronstein, R. et al. J. Vis. Exp. JoVE 50647 (2013) doi:10.3791/50647). Briefly, cortices from 2-3 days old, WT, or NLRP3 KO pups were isolated, digested, and seeded at a density of 8 cortices per 10 ml petri dish. Every three days, the medium was replaced by fresh culture medium (DMEM, 10% FBS, 1% penicillin-streptomycin). After three weeks, mixed glial cultures had reached confluence, and microglia cells were isolated by mild trypsinization as previously described (Saura, J. et al. Glia 44, 183-189 (2003)). In brief, cells were washed with culture medium without FBS and treated with a mixture of trypsin 0.25% (without EDTA) and DMEM-F12 medium in a 1:3 proportion. After an incubation period of approximately 40 min, an intact layer of mixed glial cells detached, leaving microglia attached firmly to the bottom of the Petri-dish. Pure microglia were then isolated by 15 min incubation with trypsin (0.05%)-EDTA at 37° C., followed by gentle shaking. Cells were counted and seeded at the desired density, typically 7.5·10^4 cells/well in 24 well-plates.
as §1
Cytokine quantification. IL-1β in cell supernatants and brain tissue samples—after the different treatment groups—was quantified using the Mouse IL-1 beta/IL-1F2 DuoSet ELISA kit (R&D systems), IL-6 in cell culture supernatant was measured through the Mouse IL-6 ELISA kit (ThermoFisher), TNF-α in cell culture supernatants was determined using the Mouse TNF-alpha DuoSet ELISA (R*D systems), and IL-18 in brain tissue was measured through the IL-18 Mouse ELISA Kit (Invitrogen) following the manufacturers' recommended protocol. IL-1β precursor and cleaved IL-1β in the FC of mice treated with vehicles, LPS, or C77-LPS was assessed by western blot. All samples were run in technical duplicates.

NLRC4 inflammasome = NLRC4 inflammasome (Mus musculus, UniProt Q3UP24); experiment: NLRC4 inflammasome activation assay: IL-1β release, microglia from NLRP3 KO mice, LPS and flagellin; settings: 10 μM
Experimental: AIM2, NLRP7, and NLRC4 inflammasomes activation assays. […] AIM2 inflammasome activation was induced through the addition of 100 ng/ml LPS for 2 hours, followed by transfection of 1 μg poly(dA:dT) using Lipofectamine 2000 during 2 hours, following the manufacturer recommendations. NLRC4 was activated by treatment with 150 ng/ml LPS for 2 hours, before transfection of 1 μg flagellin during 2 hours, using lipofectamine 2000 as transfection reagent. Negative and positive controls were pre-treated with the same DMSO percentage as cells treated with the inhibitors. Negative controls were kept untreated after DMSO addition, while LPS-poly(dA:dT) or LPS-flagellin was added to positive controls for AIM2, and NLRC4 activation, respectively. For activation of the NLRP7 inflammasome different conditions were assessed: treatment of WT microglia cultures with 400 ng/ml fibroblast-stimulating lipopeptide-1 (fsl-1) for 7 hours, priming with 150 ng/ml LPS for 1 hour and treatment with 400 ng/ml fsl-1 for 7 hours, and priming with 150 ng/ml LPS and transfection of 400 ng/ml fsl-1 with lipofectamine. MCC950 was used as a negative control for NLRC4 and AIM-2 inhibition. […]
Cytokine quantification. […] IL-1β precursor and cleaved IL-1β in the FC of mice treated with vehicles, LPS, or C77-LPS was assessed by western blot. […]

| Compound | rate of ASC speck positive cells [1] | concentrations inhibiting pyroptosis [2] | cytotoxicity (microglia cultures) | IC50 (NLRP3 inflammasome) | % Residual activity (percentage of IL-1β, referred to control) (NLRP3 inflammasome; microglia cultures pretreated with 100 μM compound before NLRP3 activation with LPS and ATP) [%] | inhibition of NLRC4-mediated IL-1β production (NLRC4 inflammasome) | inhibition of IL-1β release upon NLRP3 activation (NLRP3 inflammasome) |
| --- | --- | --- | --- | --- | --- | --- | --- |
| O=c1[nH]nc(-c2ccc(OCc3ccc(F)cc3)cc2)o1 | significantly reduced | higher C97 concentrations were needed | exerted some toxicity | 10 µM and 11.3 µM | 0 | specific for NLRP3 |  |
| Cc1cnn(CC2CCN(C(=O)Cn3c(=O)oc4ccccc43)C2)c1 (stereo not drawn) |  |  |  | 45.4 µM |  |  | inhibited NLRP3 with statistical significance |
| O=C(Cn1c(=O)oc2ccccc21)NCCn1ccc(-c2ccccc2)n1 |  |  |  | 87.2 µM |  |  | inhibited NLRP3 with statistical significance |
| O=C(Cn1c(=O)oc2ccccc21)NCCn1ccc(C(F)(F)F)n1 |  |  |  | 35.7 µM |  |  | inhibited NLRP3 with statistical significance |

“And” between values parts separate entries of the source, which are not always exact repeats. Equal values may be shown once.
